Chronic BCR inh – blocks chronic active B-cell receptor signaling; Potency, µM (top dose mostly 46.1 µM), most hits filed as inhibitors; 0.05% of 340,000 active; AID 493014; ABC-DLBCL IkBa-CBG/CBR reporter, luminescence ratio, 4 h; active = well fitted inhibition curve with a large enough effect in the signal ratio, with a control signal flat, not every such curve was filed as active; inconclusive = small, poorly fitted or top-dose-only effect, or effect the other way, or a change in a side signal; the % refers to the signal ratio
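Compounds up to 46 uM were incubated four hours with TMD8 cells whose green CBG68 luciferase is fused to IkappaBalpha; red CBR luminescence normalised the signal, and concentration-effect curves were fitted to fusion, red and ratio data.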
B2AR arrestin – beta2AR (human) beta-arrestin recruitment activity | AID 492947 | P07550 | 0.02% of 330,000 active | beta-arrestin recruitment to beta2AR, cell-based reporter | Potency, µM (series often up to 46.1 µM), most hits filed as activators; note: nearly all actives have a fitted effect of over 65% in size
PKM2 activator – increases activity of human pyruvate kinase M2; AID 1631; purified PKM2, Kinase-Glo ATP luminescence, activation; response scale: 0% is enzyme alone, no compound; Potency, µM (titrated, usually from 57.5 µM), most hits filed as activators; 0.34% of 260,000 active; note: nearly all actives have a fitted effect of over 55% in size
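ATP formation by purified human PK-M2, quantified via coupled luciferase luminescence after 1 h at room temperature with 0.1 mM ADP and 0.5 mM PEP final.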
PINK1 modulator – PINK1 expression modulation. AID 624263. PINK1 immunofluorescence, high-content cytometry, 24 h. 0.2% of 410,000 active. Potency, µM (series often up to 76.6 µM), most hits filed as activators; active = well fitted activation curve with a large enough effect; inconclusive = small, poorly fitted or top-dose-only effect; cell line not stated here; note: nearly all actives have a fitted effect of over 65% in size
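PINK1 protein level read as immunofluorescence by microplate cytometer in a fixed, stained stable cell line after 24 h exposure to five compound concentrations, with CCCP as control.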
Pin1 inh – blocks the human prolyl isomerase Pin1; Q13526; Pin1 FP peptide displacement, HiFluor488, 10 min; Potency, µM (series often up to 115 µM), most hits filed as inhibitors; 0.009% of 390,000 active; active = well fitted inhibition curve with a large enough effect in the polarisation, with a control signal flat, not every such curve was filed as active; inconclusive = small, poorly fitted or top-dose-only effect, or effect the other way, or a change in a side signal; inactive = no such curve, though single readings can be large or run the other way; the % refers to the polarisation
miR-21 reporter – miR-21 reporter, rising signal; HeLa miR-21 FLuc reporter, luciferase, 48 h; Potency, µM (titrated, usually from 38.3 µM); 340,000 tested, under 10 active; AID 2288; active = well fitted rising curve with a large enough effect; inconclusive = small, poorly fitted or top-dose-only effect; inactive = no such curve, though single readings can be large or run the other way;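 also: miR-21 action dims this reporter so a rising signal means less miR-21 action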
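HeLa cells endogenously expressing miR-21, stably carrying CMV-driven firefly luciferase with a downstream miR-21 binding site, 2000 cells/well. Titrations up to approximately 40 uM, 48 hours; luciferase luminescence read.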
Large screens that a line does not name were inactive. This is a sample that favours compounds with a hit; in the whole collection about 0.46% have one here. Unless noted, calls come from the whole dose curve; as a rule, active = well fitted curve in the direction sought with a large enough effect; inconclusive = small, poorly fitted or top-dose-only effect, or another doubt; inactive = no such curve, though single readings can be large; an effect the other way counts as inactive or inconclusive.

C/C(CC(=O)Nc1ccc(Cl)cc1C(F)(F)F)=N\NC(N)=S	Chronic BCR inh 11µM
C/C(CC(=O)Nc1ccc(Cl)cc1Cl)=N\NC(N)=S	none
CCC(CC)C(=O)c1c[nH]c(C(=O)NN)c1	Chronic BCR inh 22µM
CC(=O)Cc1nsc(NC(=O)c2ccc(-c3cc(C(F)(F)F)ccc3Cl)o2)n1	PINK1 modulator 5µM
CC(=O)Cc1nsc(NC(=O)c2ccc(-c3cc(Cl)ccc3Cl)o2)n1	Chronic BCR inh inconclusive
CN1CCN(Nc2nn3c(=O)c4ccccc4nc3s2)CC1	none (no result: Chronic BCR inh, B2AR arrestin, PKM2 activator, PINK1 modulator, miR-21 reporter)
O=C(O)c1ccccc1C(=O)Nc1ccc(Br)c(C(F)(F)F)c1	none
Cc1cc(C)c(C(=O)Nc2ccc(Br)c(C(F)(F)F)c2)c(C)c1	Chronic BCR inh inconclusive, PINK1 modulator 13µM
N#Cc1cc(C(=O)c2cc(Br)ccc2O)cn(C2CCCCC2)c1=O	PINK1 modulator 22µM
NC(=O)CC(NC(=O)Cc1ccc(Br)cc1)c1ccc(NCCc2ccccc2F)c([N+](=O)[O-])c1 (configuration not stated)	PKM2 activator 1.6µM, Pin1 inh inconclusive
O=C(CCOc1ccccc1)N1CCN(S(=O)(=O)c2cccs2)CC1	PKM2 activator 13µM
N#Cc1ccc(OCC(=O)N2CCN(S(=O)(=O)c3cccs3)CC2)cc1	PKM2 activator 18µM
O=C(CCc1ccccc1)N1CCN(S(=O)(=O)c2cccs2)CC1	PKM2 activator 3.5µM
COc1ccc(OCC(=O)N2CCN(S(=O)(=O)c3ccccc3[N+](=O)[O-])CC2)cc1	PKM2 activator 7.9µM
COc1ccc(CCC(=O)N2CCN(S(=O)(=O)c3cccs3)CC2)cc1	none (no result: PKM2 activator, miR-21 reporter)
Cn1c(-c2ccncc2)nc2cc(C(=O)N3CCCC3c3nccs3)cc(NC(=O)C3CCC3)c21 (configuration not stated)	none (no result: Chronic BCR inh, B2AR arrestin, PKM2 activator, Pin1 inh, miR-21 reporter)
O=C(COc1ccccc1)N1CCN(S(=O)(=O)c2cccs2)CC1	Chronic BCR inh inconclusive, PKM2 activator 7.9µM
O=C(c1ccccc1)N1CCN(S(=O)(=O)c2cccs2)CC1	none
COc1cc(F)c(S(=O)(=O)N2CCCN(S(=O)(=O)c3cccc(NC(C)=O)c3)CC2)c(F)c1	none (no result: Chronic BCR inh, B2AR arrestin, PKM2 activator, PINK1 modulator, miR-21 reporter)
O=[N+]([O-])c1ccccc1OCCCn1cnc2ccccc21	PKM2 activator 18µM
O=c1c2ccccc2ncn1CCCOc1ccccc1[N+](=O)[O-]	Chronic BCR inh inconclusive
CC(C)Cn1c(N)c(C(=O)CSc2nncs2)c(=O)n(C)c1=O	none (no result: PKM2 activator, miR-21 reporter)
CCCn1c(N)c(C(=O)CSc2nc(C)cs2)c(=O)n(C)c1=O	Chronic BCR inh inconclusive, PKM2 activator 16µM
CCN(CC)CCN(C(=O)c1ccc2c(c1)CCCC2)c1nc2ccc(C)cc2s1	PINK1 modulator 28µM
CCN(CC)CCN(C(=O)c1ccc2c(c1)CCCC2)c1nc2ccc(F)cc2s1	Chronic BCR inh inconclusive, PINK1 modulator inconclusive
CCN(CC)CCN(C(=O)c1ccc2c(c1)CCCC2)c1nc2c(C)cccc2s1	PINK1 modulator 45µM
CCN(CC)c1ccc(/C=N/N2C(=O)c3ccccc3C2=O)cc1	none
CCN(CC)c1ccc(/C=N/N2CC(=O)NC2=S)cc1	Chronic BCR inh inconclusive, PINK1 modulator 40µM, Pin1 inh inconclusive (no result: PKM2 activator, miR-21 reporter)
CCc1n[nH]c(=S)n1/N=C/c1ccc(N(CC)CC)cc1	Chronic BCR inh 11µM, B2AR arrestin inconclusive
O=C(Nc1cccc(N2CCC(NCc3cnn(-c4cccc(F)c4)c3)CC2)c1)c1ccncc1	none (no result: Chronic BCR inh, B2AR arrestin, PKM2 activator, Pin1 inh, miR-21 reporter)
COc1cc2nc(N(C)C)c(CNC3CCOC(C)(C)C3)cc2c(OC)c1OC (configuration not stated)	none (no result: Chronic BCR inh, B2AR arrestin, PKM2 activator, Pin1 inh, miR-21 reporter)
O=C(Cc1ccc([N+](=O)[O-])cc1)N/N=C/c1ccc([N+](=O)[O-])o1	PINK1 modulator 35µM, miR-21 reporter inconclusive
CCCCCCCC(=O)N/N=C/c1ccc([N+](=O)[O-])o1	Chronic BCR inh inconclusive
Cc1nc2ccc(N=NN(C)C)cc2[nH]1	Chronic BCR inh inconclusive, PKM2 activator 10µM
Cc1cc(C(=O)O)ccc1-c1ccc(/C=C2\NC(=O)N(Cc3ccccc3Cl)C2=O)o1	PKM2 activator 20µM (no result: Pin1 inh)

Assay outcomes (PubChem)
